In PubChem BioAssay AID686940 (The Scripps Research Institute Molecular Screening Center, 2013) one finds inhibition data, which are given here for 59 compounds.

By UniProt entry, the sequences of proteins in these tests, tags left out.
UniProt P24468, whole entry: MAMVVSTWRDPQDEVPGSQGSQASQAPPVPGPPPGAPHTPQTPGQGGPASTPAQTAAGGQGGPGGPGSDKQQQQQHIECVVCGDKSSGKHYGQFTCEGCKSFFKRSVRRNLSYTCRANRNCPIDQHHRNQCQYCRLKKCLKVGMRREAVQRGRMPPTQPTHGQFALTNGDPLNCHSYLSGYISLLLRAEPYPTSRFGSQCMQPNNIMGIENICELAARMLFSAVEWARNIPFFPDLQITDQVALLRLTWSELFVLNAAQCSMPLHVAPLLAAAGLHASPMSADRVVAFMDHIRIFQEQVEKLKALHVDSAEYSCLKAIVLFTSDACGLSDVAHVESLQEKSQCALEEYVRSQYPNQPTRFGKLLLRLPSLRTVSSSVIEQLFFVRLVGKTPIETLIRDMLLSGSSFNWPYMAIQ

The structures appear in SMILES notation. This is a selection; strong and weak results do not stand in their true shares. Some salts or complexes appear as unconnected parts, following the source record. Calls of active or inactive are those of the source.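 Rule for the calls: active = inhibition above a per-plate cutoff, mean inhibition of test wells between control levels plus 3 SD (cut at about 38% in these data); inactive = the rest.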

The assay concerns the target COUP transcription factor 2 (Homo sapiens) (UniProt P24468). Nature of the assay: COUP-TFII reporter suppression in human cells – cell-based, luciferase reporter, HEK293T, luminescence, primary screen (AID 686940).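 Note: cells cotransfected with COUP-TFII expression vector driving the NGFI-A reporter; 0% = median of COUP-TF2 test wells and 100% = reporter-only cells.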 The following applies: HEK293T NGFI-A luciferase reporter, at 8.6 µM, hits give high values. In general terms: In a reporter assay the amount or activity of a reporter protein is the signal.
What is called inhibition is the change of the read-out against control, counted positive when it falls. Regarding `Cc1c(C(c2ccc3c(c2)OCO3)c2c(C)n(C)n(-c3ccccc3)c2=O)c(=O)n(-c2ccccc2)n1C.O=[N+]([O-])c1cc([N+](=O)[O-])c(O)c([N+](=O)[O-])c1`, the inhibition is inactive: 12.1%. Consider `Cc1cc(-c2cccc3ccccc23)c(C)cn1.O=[N+]([O-])c1cc([N+](=O)[O-])c(O)c([N+](=O)[O-])c1`, for which the inhibition was inactive: -7.27%. Under `O=[N+]([O-])c1cc([N+](=O)[O-])c(NCC2CCS(=O)(=O)C2)c([N+](=O)[O-])c1` (centres undefined) stands inactive: 8.48%; under `O=[N+]([O-])c1ccc(OP2(=O)COCCO2)cc1` (centres undefined), inactive: 7.19%; under `COc1ccc(NP(C)(=O)Oc2ccccc2OC)cc1` (centres undefined), inactive: -18.7%. The figure for `CN(C)CCOC(=O)C(O)(c1ccccc1)C1CCCCC1` (centres undefined) is inactive: -10.7%; for `COc1ccc(OP(C)(=O)Nc2cccc(Br)c2)cc1` (centres undefined) it is inactive: 0.05%; for `O=[N+]([O-])c1cc([N+](=O)[O-])c(C(F)(F)F)c([N+](=O)[O-])c1O` it is inactive: -18.4%. For the compound `Cc1ccccc1NP(C)(=O)Nc1ccccc1C`, the inhibition was inactive: 16.8%. In the case of `CP(=O)(Nc1ccc2c(c1)OCCO2)Oc1ccccc1` (centres undefined), the inhibition was inactive: 4.79%. With `CCOP(=O)(CC)OCC`, the inhibition was inactive: -23.1%. As to `CCOP(C)(=S)SCC(=O)NC(C)(CC)C(=O)O` (centres undefined), the inhibition is inactive: 4.94%.

On to `CP(=O)(Nc1ccc(SC(F)(F)F)cc1)Oc1ccc(F)cc1` (centres undefined), for which the inhibition is inactive: 9.02%.

Turning to `COc1ccc2c(c1O)-c1c(O)c(OC)cc3c1[C@H](C2)[N+](C)(C)CC3.O=[N+]([O-])c1cc([N+](=O)[O-])c([O-])c([N+](=O)[O-])c1[O-]`, the inhibition is inactive: -2.66%. Turning to `O=C(OCCN1CCN(CCOCc2ccccc2)CC1)C(O)(c1ccccc1)c1ccccc1`, the inhibition was inactive: -5.37%.

In the case of `O=C(OC1CN2CCC1CC2)c1ccc([N+](=O)[O-])cc1` (centres undefined), the inhibition is inactive: -4.54%. The figure for `CC(C)c1ccc(OP(C)(=O)Nc2ccc(SC(F)(F)F)cc2)cc1` (centres undefined) is inactive: 7.73%.

Consider `CP(=O)(Nc1ccccc1F)Oc1ccccc1` (centres undefined), for which the inhibition is inactive: 37.3%. Under `O=[N+]([O-])c1cc([N+](=O)[O-])c(Nc2ccc(Cl)cc2)c([N+](=O)[O-])c1` stands active: 57.3%; under `CCCCCOc1ccc(NP(C)(=O)Oc2ccc(Cl)cc2Cl)cc1` (centres undefined), inactive: -10.1%; under `O=[N+]([O-])c1cc([N+](=O)[O-])c(OC2CCCCC2O)c([N+](=O)[O-])c1` (centres undefined), inactive: -5.55%. Turning to `CP(=O)(Nc1ccccc1)Oc1ccc(F)cc1` (centres undefined), the inhibition was inactive: 4.72%. The figure for `CCN(CC)CCCOC(=O)C(O)(c1ccccc1)C1CCCCC1` (centres undefined) is inactive: 9.75%; for `Cc1c([N+](=O)[O-])cc([N+](=O)[O-])c(Br)c1[N+](=O)[O-]` it is inactive: 15.7%; for `COc1ccc(OP(C)(=O)Nc2ccc(SC(F)(F)F)cc2)cc1` (centres undefined) it is inactive: 10.2%. As for `CCOC(=O)c1ccc(NP(C)(=O)Oc2ccc(F)cc2)cc1` (centres undefined), the inhibition is inactive: -11.4%.

Take `CCN(CC)CCCNc1ccccc1[N+](=O)[O-].O=[N+]([O-])c1cc([N+](=O)[O-])c(O)c([N+](=O)[O-])c1`: the inhibition was inactive: 7.49%. Consider `CCCCCCCCCCCCCCCC1C[N+](C)(C)CCOP(C)(=O)O1` (centres undefined), for which the inhibition was inactive: -10%.

Take `CP(=O)(Nc1ccc(Cl)cc1Cl)Oc1ccccc1` (centres undefined): the inhibition was inactive: 1.28%. Under `CP(=O)(OCCOc1ccccc1)OCCOc1ccccc1` stands inactive: 10.1%; under `COc1ccc(OP(C)(=O)Nc2ccccc2Br)cc1` (centres undefined), inactive: 1.44%.

`COc1ccccc1OP(C)(=O)Nc1ccc(C)c(C)c1` (centres undefined): the inhibition is inactive: 10.6%. Take `Cc1cc(C)cc(OP(C)(=O)Nc2cccc(C(F)(F)F)c2)c1` (centres undefined): the inhibition is inactive: 4.93%. In the case of `O=C1C(O)=C([N+](=O)[O-])C(=O)C(O)=C1[N+](=O)[O-]`, the inhibition is inactive: -7.92%.

On to `CCc1ccc(OP(C)(=O)O)cc1`, for which the inhibition was inactive: -2.9%.

Turning to `COc1ccccc1OP(C)(=O)Nc1ccc(C)cc1C` (centres undefined), the inhibition was inactive: 1.4%. Take `CP(=O)(Nc1ccccn1)Oc1ccccc1` (centres undefined): the inhibition was inactive: -0.42%.

For `Cc1c(NP(C)(=O)Oc2ccc(C(C)C)cc2)c(=O)n(-c2ccccc2)n1C` (centres undefined), the inhibition is inactive: -3.19%. Under `O=[N+]([O-])c1cc([N+](=O)[O-])c(Nc2ccccn2)c([N+](=O)[O-])c1` stands inactive: 5.03%; under `CN(C)CCOC(=O)C(O)(c1ccccc1)C1CCCC1` (centres undefined), inactive: -3.57%. `COc1ccc(OP(C)(=O)Nc2ccccn2)cc1` (centres undefined): the inhibition was inactive: -3.24%. On to `COc1ccccc1OP(C)(=O)Nc1ccc(Br)cc1` (centres undefined), for which the inhibition is inactive: 0.38%. In the case of `CN(C)C(=O)c1c([N+](=O)[O-])cc([N+](=O)[O-])cc1[N+](=O)[O-]`, the inhibition was inactive: 11.8%. For the compound `CP(=O)(Nc1ccc(Cl)cc1)Oc1ccc(F)cc1` (centres undefined), the inhibition is inactive: -6.52%. For the compound `COc1ccccc1OP(C)(=O)Nc1ccccc1Br` (centres undefined), the inhibition is inactive: -3.05%.

As to `CC(C)(C)c1ccc(OP(C)(=O)O)cc1`, the inhibition is inactive: -2.82%.

In the case of `CCc1ccc(OP(C)(=O)Nc2cccnc2)cc1` (centres undefined), the inhibition was inactive: 4.35%. The figure for `CP(=O)(Oc1ccccc1)N1CCOC1=O` (centres undefined) is inactive: -0.05%; for `O=C(OCCCN1CCCC1)C(O)(c1ccccc1)C1CCCCC1` (centres undefined) it is inactive: -14.9%; for `COc1ccccc1OP(C)(=O)Nc1c(C)n(C)n(-c2ccccc2)c1=O` (centres undefined) it is inactive: 15.1%. In the case of `COc1ccc(OP(C)(=O)Nc2ccc(Br)cc2)cc1` (centres undefined), the inhibition is inactive: 8.64%. With `CCN(CC)CC(O)COC(=O)C(O)(c1ccccc1)C1CCCCC1` (centres undefined), the inhibition is inactive: 5.59%. For the compound `CP(=O)(OC12CC3CC(CC(C3)C1)C2)OC12CC3CC(CC(C3)C1)C2`, the inhibition is inactive: -8.76%. Take `CCOC(=O)c1ccc(NP(C)(=O)Oc2ccc(Cl)cc2)cc1` (centres undefined): the inhibition is inactive: 0.26%. Regarding `Nc1ccc2c(ccc3cccnc32)n1.O=[N+]([O-])c1cc([N+](=O)[O-])c(O)c([N+](=O)[O-])c1`, the inhibition is inactive: -4.68%. As to `COc1ccccc1OP(C)(=O)Nc1ccccc1` (centres undefined), the inhibition was inactive: 13.2%. Consider `CP(=O)(Nc1ccccc1Br)Oc1ccccc1` (centres undefined), for which the inhibition is inactive: 0.99%. For the compound `CP(=S)(Nn1cnnc1)Oc1ccccc1` (centres undefined), the inhibition is inactive: 3.21%. As to `CP(=O)(Nc1ccccn1)Oc1ccc(Cl)cc1` (centres undefined), the inhibition was inactive: -10.7%.
